ChEMBL document CHEMBL1138542, “In-vitro regeneration of sarin inhibited electric eel acetylcholinesterase by bis-pyridinium oximes bearing xylene linker” (2009)
Calls of active or inactive are those of the source. The rule behind the calls is not given here.

The chains behind the UniProt entries cited, without tags or fusion partners. Where a name states a change or a piece, a line headed by the entry shows the natural chain unless it says otherwise.
UniProt O42275: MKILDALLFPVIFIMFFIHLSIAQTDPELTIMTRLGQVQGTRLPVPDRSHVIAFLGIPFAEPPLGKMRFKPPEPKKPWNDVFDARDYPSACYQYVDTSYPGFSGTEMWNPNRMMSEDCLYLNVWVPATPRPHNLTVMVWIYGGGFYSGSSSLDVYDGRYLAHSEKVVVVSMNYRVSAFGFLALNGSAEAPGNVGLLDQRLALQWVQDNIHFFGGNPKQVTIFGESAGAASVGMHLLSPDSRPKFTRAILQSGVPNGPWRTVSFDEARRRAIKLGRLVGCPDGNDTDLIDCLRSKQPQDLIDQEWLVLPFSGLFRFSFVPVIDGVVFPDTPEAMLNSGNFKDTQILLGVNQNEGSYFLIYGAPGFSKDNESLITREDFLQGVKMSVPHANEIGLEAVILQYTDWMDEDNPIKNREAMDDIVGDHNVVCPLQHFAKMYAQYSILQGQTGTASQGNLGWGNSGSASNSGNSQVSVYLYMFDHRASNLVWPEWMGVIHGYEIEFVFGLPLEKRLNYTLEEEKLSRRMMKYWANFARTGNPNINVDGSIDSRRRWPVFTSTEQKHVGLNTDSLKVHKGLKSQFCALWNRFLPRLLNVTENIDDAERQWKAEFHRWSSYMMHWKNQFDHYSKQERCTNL

How the values were obtained:
[1] = molecular target: Acetylcholinesterase (Electrophorus electricus) (UniProt O42275); assay: Reactivation of sarin-inhibited electric eel AChE at 10 uM after 10 mins by Ellman's method relative to control; design: scale not given: the % may be the effect or the level left
[2] = molecular target: Acetylcholinesterase (Electrophorus electricus) (UniProt O42275); assay: Reactivation of sarin-inhibited electric eel AChE after 10 mins by Ellman's method relative to control
[3] = molecular target: Acetylcholinesterase (Electrophorus electricus) (UniProt O42275); assay: Reactivation of sarin-inhibited electric eel AChE at 100 uM after 10 mins by Ellman's method relative to control; design: scale not given: the % may be the effect or the level left

Q: With O/N=C/c1ccc[n+](Cc2ccccc2C[n+]2cccc(/C=N/O)c2)c1 as the compound, how does the Activity [1] read?
A: The Activity was “Active”.

Q: With O/N=C/c1cccc[n+]1Cc1ccccc1C[n+]1ccccc1/C=N/O as the compound, how does the Activity [2] read?
A: Its Activity is “Active”.

Q: Which Activity [2] does the source give for O/N=C\c1cc[n+](Cc2ccccc2C[n+]2ccc(/C=N\O)cc2)cc1 here?
A: The Activity was “inactive”.

Q: Which Activity [1] does the source give for O/N=C/c1cccc[n+]1Cc1ccc(C[n+]2ccccc2/C=N/O)cc1 here?
A: Its Activity is “Active”.

Q: For O/N=C/c1ccc[n+](Cc2cccc(C[n+]3cccc(/C=N/O)c3)c2)c1, which Activity [1] is on record?
A: Its Activity is 10%.

Q: And the Activity [3]?
A: The Activity was 25%.

Q: With O/N=C/c1ccc[n+](Cc2ccc(C[n+]3cccc(/C=N/O)c3)cc2)c1 as the compound, how does the Activity [1] read?
A: The Activity was 20%.

Q: And the Activity [3]?
A: The Activity was 35%.
